# Values quoted from earlier work, collected in PMC10411393 (Journal of medicinal chemistry, 2022).
# Target: Plk1
# Conditions: read-out: binding affinity (KD) against Plk1; cited from earlier work
substance,measurement,value
PLH*SpT,pKd,8.70 to 9.00

# pKd: −log10 of the molar value.
